Assay results: US12100485B2, “Machine learning and molecular simulation based methods for enhancing binding and activity prediction” (The Board of Trustees of the Leland Stanford Junior …, priority 2018, dated 2024)

Protein sequences, listed by entry. Tags and fused reporters are not part of them.
UniProt P42866, whole entry: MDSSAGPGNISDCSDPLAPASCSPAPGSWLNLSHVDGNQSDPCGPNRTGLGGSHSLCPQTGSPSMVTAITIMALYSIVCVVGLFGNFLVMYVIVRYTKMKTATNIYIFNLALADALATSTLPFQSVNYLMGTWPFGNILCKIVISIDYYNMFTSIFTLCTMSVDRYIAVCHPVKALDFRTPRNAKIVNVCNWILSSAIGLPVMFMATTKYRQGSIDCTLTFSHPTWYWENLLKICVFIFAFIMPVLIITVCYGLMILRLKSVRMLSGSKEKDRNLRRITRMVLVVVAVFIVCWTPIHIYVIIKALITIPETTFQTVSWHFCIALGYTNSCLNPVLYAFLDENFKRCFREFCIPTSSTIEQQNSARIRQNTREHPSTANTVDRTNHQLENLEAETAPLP

Tests used:
MOR-1 [1] = biological target: T1, MOR-1 (Mus musculus, UniProt P42866); assay: Competition binding against 125I-IBNtxA in membranes from CHO cells expressing cloned opioid receptor; settings: single dose 10 μM concentration
Experimental: (§1) Thirty available, highest scoring compounds were experimentally assayed. […] One compound, FMP4, has a unique structure: no basic amine or phenol. In further binding assays in opioid transfected cell lines, FMP4 has a binding affinity of 3217±153 nM, 2503±523 nM, and 8143±1398 nM at MOR-1, KOR-1, and DOR-1 respectively. FMP4 is also a weak MOR-1 partial agonist in [35S]GTPγS functional assays. FMP4 is distinct from known opioid agonists and antagonists, with a maximum Tanimoto score of 0.44 compared to other known agonists and antagonists for the μOR. FMP4-like compounds in the same data set were characterized in binding assays and two compounds FMP1 and FMP16 show <10 μM affinity at MOR-1.
Each panel is a representative experiment that has been independently replicated at least three times. FIGS. 8A-8D illustrate structures and molecular weights for FMP1-FMP32.
Error bars represent the SEM of triplicate samples. Error bars that cannot be seen are smaller than the size of the symbol. FMP4 had 3217±153 nM, 2503±523 nM and 8143±1398 nM affinity at MOR-1, KOR-1 and DOR-1 respectively.

MOR-1 [2] = biological target: T1, MOR-1; assay: [35S]GTPγS functional assays
Experimental: as §1

SMILES	Inhibition of 125IBNtxA specific binding at MOR-1 (MOR-1 [1]) [%]	MOR-1 functional activity in [35S]GTPγS assays (MOR-1 [2])
Cc1ccccc1OCCCCCCc1c(C)n[nH]c1C	30	weak MOR-1 partial agonist
Cc1ccc(OCCCCCCc2c(C)n[nH]c2C)cc1	30	
Cc1ccccc1OCCCCCN1CCCCC1	30	
